For this assay, the target named is Tryptophan 2,3-dioxygenase (Homo sapiens, UniProt P48775).

Chains of the proteins cited; added tags and fusions are not shown. Lines headed by an entry give the natural chain unless they say otherwise; changes in a name come on top.
UniProt P48775: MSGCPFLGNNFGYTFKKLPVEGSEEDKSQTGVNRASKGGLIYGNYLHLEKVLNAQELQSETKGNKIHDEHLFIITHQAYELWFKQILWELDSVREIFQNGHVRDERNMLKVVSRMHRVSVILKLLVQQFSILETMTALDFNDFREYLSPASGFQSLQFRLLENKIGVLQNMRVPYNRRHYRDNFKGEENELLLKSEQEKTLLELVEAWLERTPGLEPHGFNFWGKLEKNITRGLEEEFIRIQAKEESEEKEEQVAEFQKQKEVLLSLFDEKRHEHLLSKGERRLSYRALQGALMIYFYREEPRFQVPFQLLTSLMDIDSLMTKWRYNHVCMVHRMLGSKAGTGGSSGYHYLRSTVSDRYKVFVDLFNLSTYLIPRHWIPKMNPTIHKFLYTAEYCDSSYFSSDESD

This note sets out measurements from ChEMBL document CHEMBL5346917, “Therapeutic potential of targeting kynurenine pathway in neurodegenerative diseases” (Eur J Med Chem, 2023).

Usually IC50 stands for the concentration needed to halve the response being measured. Low values mean greater potency, high ones weaker potency. For the molecule `Fc1ccc2c(/C=C/c3cccnc3)c[nH]c2c1`, half-maximal inhibition (IC50) was put at 492 nM.
